Molecular target: catalytic subunit of E. coli ATCase (Escherichia coli, UniProt P0A786)
Conditions: ratio to Ki of PALA

Amino acid sequences for entries named in this document (tags omitted). Residues count along the entry.
UniProt P0A786, 2-311: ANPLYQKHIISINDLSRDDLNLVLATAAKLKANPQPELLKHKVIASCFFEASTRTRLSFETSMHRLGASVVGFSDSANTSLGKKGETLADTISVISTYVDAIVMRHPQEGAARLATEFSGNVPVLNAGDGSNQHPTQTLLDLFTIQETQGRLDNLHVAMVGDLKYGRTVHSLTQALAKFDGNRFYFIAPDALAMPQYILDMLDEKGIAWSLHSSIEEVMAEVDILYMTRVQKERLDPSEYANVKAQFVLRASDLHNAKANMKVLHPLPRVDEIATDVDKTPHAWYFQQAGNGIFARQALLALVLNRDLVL

Compound: O=C(O)C[C@H](NC(=O)CP(=O)(O)O)C(=O)O [Compound 1, N-phosphonacetyl-L-aspartate]
- Ki/Ki(PALA): 1
